From PubChem BioAssay (NCI)
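All cell lines were grown in 96-well plates and treated with compound for 48 hours. Abbreviation: GI50, concentration required for 50% inhibition of growth. TGI is the concentration that stops growth completely.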

Key:
Experiment in all cases: NCI anticancer screen, dose series, 48 h
NCI/ADR-RES ovarian = system: NCI/ADR-RES ovarian
IGROV1 ovarian = system: IGROV1 ovarian
A549 NSCLC = system: A549 NSCLC
RPMI-8226 leukemia = system: RPMI-8226 leukemia
CAKI-1 renal = system: CAKI-1 renal
OVCAR-3 ovarian = system: OVCAR-3 ovarian
LOX IMVI melanoma = system: LOX IMVI melanoma
UO-31 renal = system: UO-31 renal
TK-10 renal = system: TK-10 renal
MDA-MB-231 breast = system: MDA-MB-231 breast
SW-620 colon = system: SW-620 colon
SF-295 CNS = system: SF-295 CNS
HOP-62 NSCLC = system: HOP-62 NSCLC
HCC-2998 colon = system: HCC-2998 colon
SR leukemia = system: SR leukemia
HT29 colon = system: HT29 colon
OVCAR-4 ovarian = system: OVCAR-4 ovarian
HOP-92 NSCLC = system: HOP-92 NSCLC
MOLT-4 leukemia = system: MOLT-4 leukemia
SK-OV-3 ovarian = system: SK-OV-3 ovarian
SNB-19 CNS = system: SNB-19 CNS
NCI-H322M lung = system: NCI-H322M lung
MDA-MB-435 = system: MDA-MB-435
NCI-H23 lung = system: NCI-H23 lung
OVCAR-5 ovarian = system: OVCAR-5 ovarian
SF-268 CNS = system: SF-268 CNS
COLO 205 colon = system: COLO 205 colon
T-47D breast = system: T-47D breast
MDA-N = system: MDA-N
HCT-116 colon = system: HCT-116 colon
A498 renal = system: A498 renal
DU-145 prostate = system: DU-145 prostate
U251 CNS = system: U251 CNS
PC-3 prostate = system: PC-3 prostate
OVCAR-8 ovarian = system: OVCAR-8 ovarian
SK-MEL-5 melanoma = system: SK-MEL-5 melanoma
RXF 393 renal = system: RXF 393 renal
UACC-257 melanoma = system: UACC-257 melanoma
MALME-3M melanoma = system: MALME-3M melanoma
SK-MEL-28 melanoma = system: SK-MEL-28 melanoma
NCI-H522 lung = system: NCI-H522 lung
HCT-15 colon = system: HCT-15 colon
EKVX NSCLC = system: EKVX NSCLC
SN12C renal = system: SN12C renal
SF-539 CNS = system: SF-539 CNS
MCF7 breast = system: MCF7 breast
NCI-H226 lung = system: NCI-H226 lung
NCI-H460 lung = system: NCI-H460 lung
SNB-75 CNS = system: SNB-75 CNS
786-0 renal = system: 786-0 renal
CCRF-CEM leukemia = system: CCRF-CEM leukemia
SK-MEL-2 melanoma = system: SK-MEL-2 melanoma
ACHN renal = system: ACHN renal
KM12 colon = system: KM12 colon
HL-60(TB) leukemia = system: HL-60(TB) leukemia
M14 melanoma = system: M14 melanoma

CC1=CC2OC3CC4OC(=O)/C=C/C=C/C(=O)OCCC(C)C(O)C(=O)OCC2(CC1O)C4(C)C31CO1 (stereo not given)
GI50 (NCI/ADR-RES ovarian): 136 nM | TGI (NCI/ADR-RES ovarian): 648 nM | GI50 (IGROV1 ovarian): 1.63 nM | TGI (IGROV1 ovarian): 6.55 nM | GI50 (A549 NSCLC): 9.94 nM | TGI (A549 NSCLC): 58.3 nM | GI50 (RPMI-8226 leukemia): < 1 nM | GI50 (CAKI-1 renal): 7.47 nM | TGI (CAKI-1 renal): 40.9 nM | GI50 (OVCAR-3 ovarian): < 1 nM | TGI (OVCAR-3 ovarian): 3.07 nM | GI50 (LOX IMVI melanoma): < 1 nM | TGI (LOX IMVI melanoma): < 1 nM | GI50 (UO-31 renal): 16.3 nM | TGI (UO-31 renal): 50 nM | GI50 (TK-10 renal): 2.15 nM | TGI (TK-10 renal): 9.67 nM | GI50 (MDA-MB-231 breast): 5.93 nM | TGI (MDA-MB-231 breast): 33.2 nM | GI50 (SW-620 colon): 2.05 nM | TGI (SW-620 colon): 11 nM | GI50 (SF-295 CNS): 2.22 nM | TGI (SF-295 CNS): 5.69 nM | GI50 (HOP-62 NSCLC): 1.61 nM | TGI (HOP-62 NSCLC): 6.48 nM | GI50 (HCC-2998 colon): 1.11 nM | TGI (HCC-2998 colon): 2.96 nM | GI50 (SR leukemia): 74.7 nM | GI50 (HT29 colon): 1.14 nM | TGI (HT29 colon): 4.81 nM | GI50 (OVCAR-4 ovarian): 2.43 nM | TGI (OVCAR-4 ovarian): 6.4 nM | GI50 (HOP-92 NSCLC): 1.08 nM | TGI (HOP-92 NSCLC): 3.29 nM | GI50 (MOLT-4 leukemia): < 1 nM | TGI (MOLT-4 leukemia): < 1 nM | GI50 (SK-OV-3 ovarian): 2.19 nM | TGI (SK-OV-3 ovarian): 7.38 nM | GI50 (SNB-19 CNS): 1.38 nM | TGI (SNB-19 CNS): 4.42 nM | GI50 (NCI-H322M lung): 14.6 nM | TGI (NCI-H322M lung): 63.5 nM | GI50 (MDA-MB-435): < 1 nM | TGI (MDA-MB-435): 1.84 nM | GI50 (NCI-H23 lung): 4.18 nM | TGI (NCI-H23 lung): 17.2 nM | GI50 (OVCAR-5 ovarian): 17.8 nM | TGI (OVCAR-5 ovarian): 69.2 nM | GI50 (SF-268 CNS): 2.96 nM | TGI (SF-268 CNS): 13.6 nM | GI50 (COLO 205 colon): 1.52 nM | TGI (COLO 205 colon): 3.36 nM | GI50 (T-47D breast): 1.26 nM | TGI (T-47D breast): 3.01 nM | GI50 (MDA-N): 1.22 nM | TGI (MDA-N): 2.7 nM | GI50 (HCT-116 colon): < 1 nM | TGI (HCT-116 colon): 2.17 nM | GI50 (A498 renal): 2.32 nM | TGI (A498 renal): 5.09 nM | GI50 (DU-145 prostate): 3.74 nM | TGI (DU-145 prostate): 19.9 nM | GI50 (U251 CNS): 1.36 nM | TGI (U251 CNS): 4.34 nM | GI50 (PC-3 prostate): 3.19 nM | TGI (PC-3 prostate): 12.7 nM | GI50 (OVCAR-8 ovarian): 3.41 nM | TGI (OVCAR-8 ovarian): 21.9 nM | GI50 (SK-MEL-5 melanoma): < 1 nM | TGI (SK-MEL-5 melanoma): < 1 nM | GI50 (RXF 393 renal): 1.2 nM | TGI (RXF 393 renal): 3.16 nM | GI50 (UACC-257 melanoma): 1.17 nM | TGI (UACC-257 melanoma): 3.24 nM | GI50 (MALME-3M melanoma): 1.62 nM | TGI (MALME-3M melanoma): 3.3 nM | GI50 (SK-MEL-28 melanoma): < 1 nM | TGI (SK-MEL-28 melanoma): 1.68 nM | GI50 (NCI-H522 lung): < 1 nM | TGI (NCI-H522 lung): < 1 nM | GI50 (HCT-15 colon): < 1 nM | TGI (HCT-15 colon): 3.83 nM | GI50 (EKVX NSCLC): 17.1 nM | TGI (EKVX NSCLC): 59.7 nM | GI50 (SN12C renal): 3.86 nM | TGI (SN12C renal): 25.8 nM | GI50 (SF-539 CNS): < 1 nM | TGI (SF-539 CNS): 1.45 nM | GI50 (MCF7 breast): < 1 nM | TGI (MCF7 breast): < 1 nM | GI50 (NCI-H226 lung): 1.63 nM | TGI (NCI-H226 lung): 2.35 nM | GI50 (NCI-H460 lung): 1.34 nM | TGI (NCI-H460 lung): 4.32 nM | GI50 (SNB-75 CNS): < 1 nM | TGI (SNB-75 CNS): 1.64 nM | GI50 (786-0 renal): 2.12 nM | TGI (786-0 renal): 11.1 nM | GI50 (CCRF-CEM leukemia): < 1 nM | TGI (CCRF-CEM leukemia): 2.03 nM | GI50 (SK-MEL-2 melanoma): < 1 nM | TGI (SK-MEL-2 melanoma): 2.71 nM | GI50 (ACHN renal): 3.28 nM | TGI (ACHN renal): 17.5 nM | GI50 (KM12 colon): < 1 nM | TGI (KM12 colon): 1.68 nM | GI50 (HL-60(TB) leukemia): < 1 nM | TGI (HL-60(TB) leukemia): < 1 nM | GI50 (M14 melanoma): 1.23 nM | TGI (M14 melanoma): 2.13 nM
